Earlier results, collected in US7993638B2, “Cancer treatment combining lymphodepleting agent with CTLs and cytokines” (Janssen Pharmaceutica NV, priority 2006, dated 2011).

Test system: metastatic melanoma or renal cell cancer
Details: cited from earlier work

For “IL-2: human recombinant interleukin-2, a lymphokine produced by recombinant DNA technology”, the remission rate (high-dose IL-2, 283 patients) is listed as 7%, the complete responses (high-dose IL-2, 283 patients, number of responses) is listed as 9 and the “most common side effects” value (human, in vivo) is listed as “flu-like symptoms”. For the same substance, the “most severe side effects” value (human, in vivo) was “hypotension, capillary leak syndrome, and reduced organ perfusion”.
